Here are results for 2 compounds from patent US20080312192A1, “Diaryl Urea Derivatives in the Treatment of Protein Kinase Dependent Diseases” (priority 2003, published 2008).

Protein sequences, listed by entry. Tags and fused reporters are not part of them. Residues count along the entry.
UniProt P36888, 563-993 limits assumed: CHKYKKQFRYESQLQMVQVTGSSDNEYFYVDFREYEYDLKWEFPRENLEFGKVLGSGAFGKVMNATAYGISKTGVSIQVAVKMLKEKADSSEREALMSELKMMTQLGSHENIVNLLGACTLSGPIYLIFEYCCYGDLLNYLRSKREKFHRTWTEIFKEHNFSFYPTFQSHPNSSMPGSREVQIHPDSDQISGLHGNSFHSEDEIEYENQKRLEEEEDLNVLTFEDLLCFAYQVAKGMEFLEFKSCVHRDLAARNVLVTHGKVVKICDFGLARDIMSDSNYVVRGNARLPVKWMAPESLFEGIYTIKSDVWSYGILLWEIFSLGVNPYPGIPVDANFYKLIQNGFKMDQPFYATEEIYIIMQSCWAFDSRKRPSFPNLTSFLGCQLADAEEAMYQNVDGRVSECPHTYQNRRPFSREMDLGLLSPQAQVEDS

The IC50 is the concentration that inhibits the measured activity by half.

This assay deals with Flt-3 (Homo sapiens, UniProt P36888). Kind of assay: Flt-3 kinase inhibition (GST-Flt-3, 33P incorporation into poly(Glu,Tyr)). Conditions: read-out: IC50 Flt-3.

For `CN1CCC(Oc2ccc(NC(=O)Nc3ccc(Oc4cc(N)ncn4)cc3)cc2C(F)(F)F)CC1`, the IC50 came to 140 nM. The result for `CNc1nccc(Oc2ccc(NC(=O)Nc3ccc(Cn4cnc(C)c4C)c(C(F)(F)F)c3)cc2)n1` reads 120 nM.
